Binding of CDR-mutated scFvs to a peptide of the spike HR2 region

The measurements come from Engelhart et al. 2022 (doi:10.1038/s41597-022-01779-4) through the FLAb antibody collection.

Target: peptide PDVDLGDISGINAS, taken from heptad repeat 2 (HR2) of SARS-CoV-2 spike.

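Library AAYL52 holds single substitutions and randomly drawn double and triple substitutions in the CDRs. In AlphaSeq, yeast of one mating type display the scFv and yeast of the other type display the target. After mating in shaken culture at 30 °C for 16 h, diploids were selected and their barcode pairs sequenced. The ratio of observed to expected reads was calibrated, replicate by replicate, on BCL2-family standards whose Kd was known from biolayer interferometry. The assay was run in three technical replicates.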

The variants keep the heavy chain, the linker and the frameworks of Ab-95 (scFv order VH, three GGGGS repeats, VL).
VH: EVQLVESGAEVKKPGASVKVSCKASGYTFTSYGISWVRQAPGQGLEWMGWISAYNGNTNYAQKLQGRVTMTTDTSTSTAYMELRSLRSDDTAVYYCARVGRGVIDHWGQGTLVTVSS
VL: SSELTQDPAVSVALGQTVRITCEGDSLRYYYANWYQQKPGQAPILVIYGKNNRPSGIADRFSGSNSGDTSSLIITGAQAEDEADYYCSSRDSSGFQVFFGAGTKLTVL

Variants are written as CDR1, CDR2 and CDR3 of the light chain (limits as in the source). Parent: EGDSLRYYYAN, GKNNRPS, SSRDSSGFQVF.
Values are log10 of the apparent Kd in nM; lower means stronger binding.
A mean of the replicates is given; it leaves out those without a signal.
An entry "no signal" has no value in the source: the pair was not observed among the diploids in any replicate. This suggests poor binding but is not conclusive.
Three control strains display no target. For library AAYL52, 28% of the pairings with them gave a signal, with a median of 3.91 and one signal in twenty below 2.90, so weak values seen in few replicates may be background. For each scFv, signals with the empty controls are counted beside the result.
For reference, the parent read 2.31 as the reference entry and 2.25 as a member of this library.

Variant EGSDLRYYYAN, GKNNRPS, SSRDSSGFQWF showed 3.65 (2 of 3 replicates; controls 1 of 9).
Variant QGDSLRYPYAN, LKNNRPS, SSRDSSGFQVF showed 2.91 (2 of 3 replicates; controls 2 of 9).
Variant EWDSFRYYYAN, GKNNRPS, SSRDSSGFQVF showed 2.68 (3 of 3 replicates; controls 3 of 9).
Variant TGDSLRYYYAR, GKNNRPS, SSRDSSGFAVF showed 3.09 (3 of 3 replicates; controls 2 of 9).
Variant EGDSLRYYYAN, GKNNRPS, SSRMSSGIQSF showed 2.46 (3 of 3 replicates; controls 0 of 9).
Variant EGDSLRYMYAN, SKNNRPS, SSRDSMGFQVF showed 4.99 (1 of 3 replicates; controls 1 of 9).
Variant EGDSLRYYYNN, GKNNRPS, SSRDDSGFTVF showed 3.75 (1 of 3 replicates; controls 3 of 9).
Variant EGDSLREYYAN, GKCNRPS, NSRDSSGFQVF showed 3.68 (3 of 3 replicates; controls 3 of 9).
Variant EGDSSRYYYAN, GYNNRPS, SSRDLSGFQVF showed 3.23 (1 of 3 replicates; controls 1 of 9).
Variant EGDSLRYYYAN, GKNNRPS, ISRDSSCTQVF showed 2.84 (3 of 3 replicates; controls 1 of 9).
Variant EGDSLRYYYAN, GKNSRPK, SSRDSSGFQVR showed 2.40 (3 of 3 replicates; controls 4 of 9).
Variant PGDSLRYYYAN, GKFNRPS, SSRDQSGFQVF showed 2.64 (3 of 3 replicates; controls 0 of 9).
Variant EGSSLRYYYEN, GKNNRPS, SSRDSSKFQVF showed no signal (0 of 3 replicates; controls 1 of 9).
Variant ELDSLRYYYAN, GKNNRPS, SSDDSSGFQAF showed 4.25 (1 of 3 replicates; controls 1 of 9).
Variant EGDSLRYYYMN, GKNWRPS, SRRDSSGFQVF showed 4.56 (1 of 3 replicates; controls 3 of 9).
Variant EGDSLRYYYAN, GKNKRPS, SSQDFSGFQVF showed 4.10 (2 of 3 replicates; controls 1 of 9).
Variant EGDSLRYYYAN, MKNNRPS, SSRDSRGFQVF showed 4.12 (3 of 3 replicates; controls 2 of 9).
Variant EGDSLRYHYAN, GKNNRPS, SARDSSGFQVF showed 0.84 (3 of 3 replicates; controls 7 of 9).
Variant EGDSLLYRYAN, GKNNRPS, SSRDSSGFQVF showed 2.14 (3 of 3 replicates; controls 5 of 9).
Variant AGDMLRYYYAN, GKNNRPS, SSRDSSGFQVF showed 3.25 (3 of 3 replicates; controls 3 of 9).
Variant EGDSLRYYYAN, GKNNRTS, SSCDSSGFQVY showed 3.96 (2 of 3 replicates; controls 2 of 9).
Variant EGDSLRYYAAN, GKNNIPS, SSRDSSAFQVF showed 4.48 (3 of 3 replicates; controls 3 of 9).
Variant EYDSLRYYYAN, LKNNRPS, SGRDSSGFQVF showed 4.99 (1 of 3 replicates; controls 4 of 9).
Variant EGDSLRGRYAQ, GKNNRPS, SSRDSSGFQVF showed 2.36 (3 of 3 replicates; controls 5 of 9).
Variant EGDSLIYYYAN, GKNNRPP, SSRDSSGHQVF showed 3.64 (3 of 3 replicates; controls 2 of 9).
Variant EGTSLRYNYAN, GKNNRPS, SSRDSSGFNVF showed 0.32 (3 of 3 replicates; controls 9 of 9).
Variant EGDSLRYAYAN, GKNNRTS, SSRDSKGFQVF showed 3.95 (1 of 3 replicates; controls 2 of 9).
Variant EGDSLRNMYAN, GKNNRPS, SSRDMSGFQVF showed 1.21 (3 of 3 replicates; controls 3 of 9).
Variant EYDSLRYYYAN, GKNNRPS, SSRESSGFDVF showed 3.49 (2 of 3 replicates; controls 3 of 9).
Variant EGDSLRYYYAM, GKNNRPS, SSRDSSGFQVT showed 3.89 (1 of 3 replicates; controls 4 of 9).
Variant EGDSLNMYYAG, GKNNRPS, SSRDSSGFQVF showed 4.11 (2 of 3 replicates; controls 3 of 9).
Variant EGDSLIYYYAN, GKNNRFT, SSRDSSGFQVF showed 3.99 (3 of 3 replicates; controls 3 of 9).
Variant EMDSLRYYYAN, GKVNRPS, SSRDSSWFQVF showed 3.50 (1 of 3 replicates; controls 1 of 9).
Variant EGDSLRYYYAN, GLDNRPS, SSTDSSGFQVF showed 3.28 (2 of 3 replicates; controls 4 of 9).
Variant FGDSLVYYYAN, GKNNRDS, SSRDSSGFQVF showed no signal (0 of 3 replicates; controls 0 of 9).
Variant YGDGLRYYYAN, GKFNRPS, SSRDSSGFQVF showed 4.87 (1 of 3 replicates; controls 4 of 9).
Variant EGDSVRYYWAH, GKNNRPS, SSRDSSGFQVF showed 4.13 (2 of 3 replicates; controls 5 of 9).
Variant EGDSLREYYAN, GKNNRPS, SSRDSMGFQVF showed 3.43 (2 of 3 replicates; controls 1 of 9).
Variant EGDRLRYYYAN, GKNNRPS, SSRDSSPFQVK showed no signal (0 of 3 replicates; controls 2 of 9).
Variant EGDSLRYYRAN, GKNNRPD, SSRDSSMFQVF showed 3.80 (3 of 3 replicates; controls 3 of 9).
Variant EGDSLVYYYAN, GKNHRPS, SSRDSPGFQVF showed 4.18 (1 of 3 replicates; controls 2 of 9).

The last 5 entries again:

| CDR-L1 | CDR-L2 | CDR-L3 | mean log10 Kd (nM) | seen in | control signals |
|---|---|---|---|---|---|
| EGDSVRYYWAH | GKNNRPS | SSRDSSGFQVF | 4.13 | 2 of 3 | 5 of 9 |
| EGDSLREYYAN | GKNNRPS | SSRDSMGFQVF | 3.43 | 2 of 3 | 1 of 9 |
| EGDRLRYYYAN | GKNNRPS | SSRDSSPFQVK | no signal | 0 of 3 | 2 of 9 |
| EGDSLRYYRAN | GKNNRPD | SSRDSSMFQVF | 3.80 | 3 of 3 | 3 of 9 |
| EGDSLVYYYAN | GKNHRPS | SSRDSPGFQVF | 4.18 | 1 of 3 | 2 of 9 |